From PMC5207657 (Journal of the American Chemical Society, 2016)

The chains behind the UniProt entries cited, without tags or fusion partners. Residues count along the entry.
UniProt P43220, 24-463: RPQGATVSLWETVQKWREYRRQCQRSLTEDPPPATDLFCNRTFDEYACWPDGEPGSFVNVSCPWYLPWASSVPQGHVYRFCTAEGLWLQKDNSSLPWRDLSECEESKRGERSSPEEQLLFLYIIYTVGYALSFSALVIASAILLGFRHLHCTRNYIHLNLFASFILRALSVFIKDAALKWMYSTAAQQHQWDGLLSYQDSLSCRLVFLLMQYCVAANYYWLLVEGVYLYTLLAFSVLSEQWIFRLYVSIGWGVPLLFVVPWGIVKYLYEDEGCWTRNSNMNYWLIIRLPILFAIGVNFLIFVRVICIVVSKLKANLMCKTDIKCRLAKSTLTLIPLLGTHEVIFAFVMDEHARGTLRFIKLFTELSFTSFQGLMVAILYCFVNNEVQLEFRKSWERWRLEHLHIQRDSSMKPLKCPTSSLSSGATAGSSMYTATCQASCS

What was measured:
[1] = target: T1, GLP-1R (Homo sapiens, UniProt P43220); experiment: β-arrestin-1 recruitment BRET^2 assay; conditions: HEK293FT, read-out: β-Arrestin-1 Max Response (% GLP-1)
[2] = target: T1, GLP-1R; experiment: GloSensor cAMP reporter assay; assay type: cell-based; conditions: read-out: cAMP Max Response (% GLP-1)
[3] = target: T1, GLP-1R; experiment: cell-based; conditions: HEK293FT, read-out: β-Arrestin-2 Max Response (% GLP-1)

Emax [1] [%]	Emax [2] [%]	Emax [3] [%]	Compound
30 ± 1	100 ± 1	53 ± 5	CC[C@H](C)[C@H](NC(=O)[C@H](Cc1ccccc1)NC(=O)[C@H](CCC(=O)O)NC(=O)[C@H](CCCCN)NC(=O)[C@H](C)NC(=O)[C@H](C)NC(=O)[C@H](CCC(N)=O)NC(=O)CNC(=O)[C@H](CCC(=O)O)NC(=O)[C@H](CC(C)C)NC(=O)[C@H](Cc1ccc(O)cc1)NC(=O)[C@H]1CCC[C@@H]1NC(=O)[C@H](CO)NC(=O)C(C)(C)NC(=O)[C@H](CC(=O)O)NC(=O)[C@H](CO)NC(=O)[C@@H](NC(=O)[C@H](Cc1ccccc1)NC(=O)[C@@H](NC(=O)CNC(=O)[C@H](CCC(=O)O)NC(=O)[C@H](C)NC(=O)[C@@H](N)Cc1c[nH]cn1)[C@@H](C)O)[C@@H](C)O)C(=O)N[C@@H](C)C(=O)N[C@@H](Cc1c[nH]c2ccccc12)C(=O)N[C@@H](CC(C)C)C(=O)N[C@H](C(=O)N[C@@H](CCCCN)C(=O)NCC(=O)N[C@@H](CCCNC(=N)N)C(=O)NCC(N)=O)C(C)C [α/β-Peptide 10]
37 ± 1	102 ± 1	52 ± 4	CC[C@H](C)[C@H](NC(=O)[C@H](Cc1ccccc1)NC(=O)[C@H](CCC(=O)O)NC(=O)[C@H](CCCCN)NC(=O)[C@H](C)NC(=O)[C@H](C)NC(=O)[C@H](CCC(N)=O)NC(=O)[C@H]1CCC[C@@H]1NC(=O)[C@H](CCC(=O)O)NC(=O)[C@H](CC(C)C)NC(=O)[C@H](Cc1ccc(O)cc1)NC(=O)[C@H]1CCC[C@@H]1NC(=O)[C@H](CO)NC(=O)[C@@H](NC(=O)[C@H](CC(=O)O)NC(=O)[C@H](CO)NC(=O)[C@@H](NC(=O)[C@H](Cc1ccccc1)NC(=O)[C@@H](NC(=O)CNC(=O)[C@H](CCC(=O)O)NC(=O)[C@H](C)NC(=O)[C@@H](N)Cc1c[nH]cn1)[C@@H](C)O)[C@@H](C)O)C(C)C)C(=O)N[C@@H](C)C(=O)N[C@@H](Cc1c[nH]c2ccccc12)C(=O)N[C@@H](CC(C)C)C(=O)N[C@H](C(=O)N[C@@H](CCCCN)C(=O)NCC(=O)N[C@@H](CCCNC(=N)N)C(=O)NCC(N)=O)C(C)C [α/β-Peptide 11]
85 ± 3	103 ± 1	78 ± 3	CC[C@H](C)[C@H](NC(=O)[C@H](Cc1ccccc1)NC(=O)[C@H](CCC(=O)O)NC(=O)[C@H]1CNC[C@@H]1NC(=O)[C@H](C)NC(=O)[C@H](C)NC(=O)[C@H](CCC(N)=O)NC(=O)[C@H]1CCC[C@@H]1NC(=O)[C@H](CCC(=O)O)NC(=O)[C@H](CC(C)C)NC(=O)[C@H](Cc1ccc(O)cc1)NC(=O)[C@H](CO)NC(=O)[C@H](CO)NC(=O)[C@@H](NC(=O)[C@H](CC(=O)O)NC(=O)[C@H](CO)NC(=O)[C@@H](NC(=O)[C@H](Cc1ccccc1)NC(=O)[C@@H](NC(=O)CNC(=O)[C@H](CCC(=O)O)NC(=O)[C@H](C)NC(=O)[C@@H](N)Cc1c[nH]cn1)[C@@H](C)O)[C@@H](C)O)C(C)C)C(=O)N[C@@H](C)C(=O)N[C@@H](Cc1c[nH]c2ccccc12)C(=O)N[C@@H](CC(C)C)C(=O)N[C@H](C(=O)N[C@@H](CCCCN)C(=O)NCC(=O)N[C@@H](CCCNC(=N)N)C(=O)NCC(N)=O)C(C)C [α/β-Peptide 12]
